Reference: IntAct's records for PubMed 26712280

B1: Ubiquitin recognition factor in ER-associated degradation protein 1 (Homo sapiens), Q92890 (parent)
chain: MFSFNMFDHPIPRVFQNRFSTQYRCFSVSMLAGPNDRSDVEKGGKIIMPPSALDQLSRLNITYPMLFKLTNKNSDRMTHCGVLEFVADEGICYLPHWMMQNLLLEEGGLVQVESVNLQVATYSKFQPQSPDFLDITNPKAVLENALRNFACLTTGDVIAINYNEKIYELRVMETKPDKAVSIIECDMNVDFDAPLGYKEPERQVQHEESTEGEADHSGYAGELGFRAFSGSGNRLDGKKKGVEPSPSPIKPGDIKRGIPNYEFKLGKITFIRNSRPLVKKVEEDEAGGRFVAFSGEGQSLRKKGRKP

Variants of: B1
Details: with tera_human VCP

Row | effect of a mutation on the interaction | Variant
1 | decreasing interaction strength | MFSFNMFDHPIPRVFQNRFSTQYRCFSVSMLAGPNDRSDVEKGGKIIMPPSALDQLSRLNITYPMLFKLTNKNSDRMTHCGVLEFVADEGICYLPHWMMQNLLLEEGGLVQVESVNLQVATYSKFQPQSPDFLDITNPKAVLENALRNFACLTTGDVIAINYNEKIYELRVMETKPDKAVSIIECDMNVDFDAPLGYKEPERQVQHEESTEGEADHSGYAGELGFRAFSGSGNALDGKKKGVEPSPSPIKPGDIKRGIPNYEFKLGKITFIRNSRPLVKKVEEDEAGGRFVAFSGEGQSLRKKGRKP [R234A]
2 | decreasing interaction strength | MFSFNMFDHPIPRVFQNRFSTQYRCFSVSMLAGPNDRSDVEKGGKIIMPPSALDQLSRLNITYPMLFKLTNKNSDRMTHCGVLEFVADEGICYLPHWMMQNLLLEEGGLVQVESVNLQVATYSKFQPQSPDFLDITNPKAVLENALRNFACLTTGDVIAINYNEKIYELRVMETKPDKAVSIIECDMNVDFDAPLGYKEPERQVQHEESTEGEADHSGYAGELGFRAFSGSGARLDGKKKGVEPSPSPIKPGDIKRGIPNYEFKLGKITFIRNSRPLVKKVEEDEAGGRFVAFSGEGQSLRKKGRKP [N233A]
3 | decreasing interaction strength | MFSFNMFDHPIPRVFQNRFSTQYRCFSVSMLAGPNDRSDVEKGGKIIMPPSALDQLSRLNITYPMLFKLTNKNSDRMTHCGVLEFVADEGICYLPHWMMQNLLLEEGGLVQVESVNLQVATYSKFQPQSPDFLDITNPKAVLENALRNFACLTTGDVIAINYNEKIYELRVMETKPDKAVSIIECDMNVDFDAPLGYKEPERQVQHEESTEGEADHSGYAGELGFRAFSGSGNRADGKKKGVEPSPSPIKPGDIKRGIPNYEFKLGKITFIRNSRPLVKKVEEDEAGGRFVAFSGEGQSLRKKGRKP [L235A]
4 | disrupting interaction strength | MFSFNMFDHPIPRVFQNRFSTQYRCFSVSMLAGPNDRSDVEKGGKIIMPPSALDQLSRLNITYPMLFKLTNKNSDRMTHCGVLEFVADEGICYLPHWMMQNLLLEEGGLVQVESVNLQVATYSKFQPQSPDFLDITNPKAVLENALRNFACLTTGDVIAINYNEKIYELRVMETKPDKAVSIIECDMNVDFDAPLGYKEPERQVQHEESTEGEADHSGYAGELGFRAASGSGNRLDGKKKGVEPSPSPIKPGDIKRGIPNYEFKLGKITFIRNSRPLVKKVEEDEAGGRFVAFSGEGQSLRKKGRKP [F228A]
5 | decreasing interaction strength | MFSFNMFDHPIPRVFQNRFSTQYRCFSVSMLAGPNDRSDVEKGGKIIMPPSALDQLSRLNITYPMLFKLTNKNSDRMTHCGVLEFVADEGICYLPHWMMQNLLLEEGGLVQVESVNLQVATYSKFQPQSPDFLDITNPKAVLENALRNFACLTTGDVIAINYNEKIYELRVMETKPDKAVSIIECDMNVDFDAPLGYKEPERQVQHEESTEGEADHSGYAGELGARAFSGSGNRLDGKKKGVEPSPSPIKPGDIKRGIPNYEFKLGKITFIRNSRPLVKKVEEDEAGGRFVAFSGEGQSLRKKGRKP [F225A]
